These are literature values, as cited in US9486475B2, “PPS for the prevention of potential adverse effects caused by CD3 specific binding domains” (AMGEN RESEARCH (MUNICH) GMBH, priority 2013, dated 2016).

The conditions of the data set: pH 6; cited from earlier work.

For the substance “β-D-Xylan, (1-4), 2,3-bis(hydrogen sulphate) [PPS]”, the soluble in water is recorded as 50%.
